{"source": "BindingDB's records for doi:10.1021/jm9603274", "about": "(R. W. Johnson Pharmaceutical Research Institute, 1996)", "assay": "Inhibitory activity against thrombin induced platelet aggregation", "note": "pIC50: −log10 of the molar value."}
{"compound": "CC1CNc2c(cccc2S(=O)(=O)N[C@@H](CCCNC(=N)N)C(=O)N2CC[C@@H](C)C[C@@H]2C(=O)O)C1", "note": "(stereo partly specified)", "values": [{"measurement": "pIC50", "value": 7.28}]}
